Reference: ChEMBL document CHEMBL2311356, “The effect of 17-N substituents on the activity of the opioid κ receptor in nalfurafine derivatives” (Bioorg Med Chem Lett, 2013)

Legend:
[1] = Selectivity ratio of Ki for mu opioid receptor in mouse whole brain membranes without cerebellum to Ki for kappa opioid receptor in guinea pig cerebellum; assay type: cell membranes
[2] = Selectivity ratio of Ki for delta opioid receptor in mouse whole brain membranes without cerebellum to Ki for kappa opioid receptor in guinea pig cerebellum; assay type: cell membranes

CN(C(=O)Cc1ccccc1)[C@H]1CC[C@@]2(CCCO2)C[C@@H]1N1CCCC1
Ratio Ki [1]: 400 | Ratio Ki [2]: 285
